Laboratory results from US20130040933A1, “AZAINDOLES AS JANUS KINASE INHIBITORS” (priority 2010, published 2013).

The chains behind the UniProt entries cited, without tags or fusion partners. Residues count along the entry.
UniProt P52333, 822-1111 limits assumed: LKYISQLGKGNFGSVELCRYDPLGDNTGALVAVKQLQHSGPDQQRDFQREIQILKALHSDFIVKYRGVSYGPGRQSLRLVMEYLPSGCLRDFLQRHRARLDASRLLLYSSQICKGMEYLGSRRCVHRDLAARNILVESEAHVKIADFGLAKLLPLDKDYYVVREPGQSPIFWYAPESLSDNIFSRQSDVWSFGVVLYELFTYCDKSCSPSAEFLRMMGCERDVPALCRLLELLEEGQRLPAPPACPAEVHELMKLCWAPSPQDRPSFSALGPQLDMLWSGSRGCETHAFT

Molecular target: rhJAK3 (Homo sapiens, UniProt P52333)
Experiment: JAK Biochemical HTRF Assay (JAK3)
Settings: read-out: rhJAK3 IC50; recombinant purified GST-tagged catalytic domain, HTRF format, [ATP] 1.7 μM
Experimental: JAK Biochemical HTRF Assay Protocol
The ability of compounds to inhibit the activity of JAK1, JAK2, JAK3, and TYK2 was measured using a recombinant purified GST-tagged catalytic domain for each enzyme (Invitrogen JAK1 #PV4774, JAK2 #PV4210, JAK3 #PV3855, TYK2 #PV4790) in an HTRF format biochemical assay. The reactions employed a common peptide substrate, LCB-EQEDEPEGDYFEWLW-NH2. The basic assay protocol is as follows: First, […] of diluted compounds in DMSO were dispensed into the wells of a dry 384-well Black plate (Greiner #781076) using a Labcyte Echo 555 acoustic dispenser. Subsequent reagent additions employed a Thermo Multidrop Combi nL. Next, 10 μL of 2× enzyme and 2× substrate in 1× assay buffer (Invitrogen kinase buffer #PV3189, 2 mM DTT, 0.05% BSA) were added to the wells and preincubated for 30 min at room temperature to allow compound binding to equilibrate. After equilibration, 10 μl, of 2×ATP in 1× assay buffer was added to initiate the kinase reaction and the plates were incubated at room temperature for 120 min. […] Plates were further incubated 60 min at room temperature with shaking and then read on a Perkin Elmer Envision (λex=337 nm, λem=665 and 615 nm, TRF delay time=20 μs). HTRF signal=10,000*665 nm reading/615 nm reading. After normalization to untreated controls, the percent inhibition of the HTRF signal at each compound concentration was calculated. […]

IC50: 100 to 1000 nM
Structure (SMILES): CC(C)[C@@H](Nc1cncc(-c2c[nH]c3ncc(C(=O)O)cc23)n1)C(=O)NCC(F)(F)F
